miR-21 reporter: raises the signal of a miR-21 reporter; Potency, µM (doses to about 38.3 µM), inactives show top-dose reporter change, positive = more light; HeLa miR-21 FLuc reporter, luciferase, 48 h; AID 2288; 340,000 tested, under 10 active; active = well fitted rising curve with a large enough effect; inconclusive = small, poorly fitted or top-dose-only effect; inactive = no such curve, though single readings can be large or run the other way;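 further: % of control where 0% means no effect; miR-21 action dims this reporter so a rising signal means less miR-21 action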
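HeLa cells stably expressing CMV-driven firefly luciferase with a downstream miR-21 binding sequence, endogenously expressing miR-21, were treated with titrations (up to about 40uM final) for 48 hours at 37 degree Celsius. Luciferase luminescence was read after lysis.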
GALK inh: galactokinase (human) inhibition; Purified GALK, Kinase-Glo residual ATP luminescence; Potency, µM (series often up to 57.5 µM), inactives show top-dose activity change, negative = inhibition, actives largely listed as inhibitors; AID 1868; hit rate 0.007% among 270,000; note: potency is the fitted concentration of half-maximal effect; % is set by controls: 0 for no effect and ±100 for the full control effect
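The enzyme phosphorylates galactose (100 uM) using ATP (35 uM); inhibition is detected as higher residual ATP, quantified by bioluminescence after 1 h reaction at room temperature, pH 8.0.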
rTrxR1 inhibitor: rat TrxR1 inhibition | O89049 | recombinant rTrxR1, NADPH fluorescence consumption, selenite substrate | Potency, µM (titrated, usually from 114 µM), without a hit: at the top dose activity change, negative = inhibition, hits mostly inhibitors | hit rate 1% among 390,000 | AID 588453; note: potency is the fitted concentration of half-maximal effect; % is set by controls: 0 for no effect and ±100 for the full control effect; nearly all actives have a fitted effect of over 65% in size
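Rat TrxR1 (90 nM in the dispensed reagent) was pre-reduced with 400 uM NADPH for 5 min at room temperature, then incubated with compound for 15 min. After 400 uM selenite was added, NADPH fluorescence (Ex 340/Em 450 nm) was followed for 8 min.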
PINK1 modulator: PINK1 expression modulation | PINK1 immunofluorescence, high-content cytometry, 24 h | Potency, µM (series often up to 76.6 µM), inactives show top-dose activation (PINK1 increase), usual class: activators | hit rate 0.2% among 410,000 | AID 624263; active = well fitted activation curve with a large enough effect; inconclusive = small, poorly fitted or top-dose-only effect; cell line not stated here; note: potency is the fitted concentration of half-maximal effect; % of control where 0% means no effect; nearly all actives have a fitted effect of over 65% in size
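Fluorescence from anti-PINK1 antibody, together with nuclear and cell stains, was scanned on a laser-scanning cytometer. Before staining, stable-line cells were incubated 24 hours with compounds at 5 concentrations; primary antibody 12 h at 10 degrees C.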
TrxR1 substrate: is turned over as a substrate by rat TrxR1. O89049. purified TrxR1 substrate turnover, NADPH consumption readout. Potency, µM (top dose mostly 114 µM), inactives show at the highest dose activity change, negative = substrate turnover. hit rate 0.01% among 390,000; note: potency is the fitted concentration of half-maximal effect; % is set by controls: 0 for no effect and ±100 for the full control effect; nearly all actives have a fitted effect of over 50% in size
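Rat TrxR1, dispensed at 90 nM, was prereduced with 400 uM NADPH (final) for 5 min at ~22 deg C, then incubated with compound 15 min before 400 uM selenite. A first-read NADPH fluorescence drop versus no-compound background flagged substrates.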
Active calls of the source: *; u = inconclusive; x = no result given; ! = not active in a repeat; [ ] = another dose, or the depositor's remark. This is a sample that favours compounds with a hit; in the whole collection about 1.1% have one here. Unless noted, calls come from the whole dose curve; as a rule, active = well fitted curve in the direction sought with a large enough effect; inconclusive = small, poorly fitted or top-dose-only effect, or another doubt; inactive = no such curve, though single readings can be large; an effect the other way counts as inactive or inconclusive.

miR-21 reporter | GALK inh | rTrxR1 inhibitor | PINK1 modulator | TrxR1 substrate | Compound
1% | -2% | -83% | 2% | -2%[57.1 µM] | COc1ccc(C2C(C(=O)/C=C/c3ccco3)=C(O)C(=O)N2CCN2CCOCC2)cc1 (stereo not drawn)
-1% | x | 16%[57.1 µM] | 2% | -3%[57.1 µM] | CCOC(=O)c1sc2ccccc2c1S(=O)(=O)NCc1ccc(F)cc1
14% | 2% | -10% | 32µM* | -6%[57.1 µM] | CC1(C)SC(=S)N(/N=C/c2ccccc2)C1N(O)C(=O)Nc1ccc([N+](=O)[O-])cc1 (stereo not drawn)
x | x | x | -1% | x | OC1(c2cccnc2)CCN(Cc2ccc3c(c2)CN(Cc2cc4ccccc4s2)CCO3)CC1
x | x | 0% | x | -8% | C=CC[C@H](c1ccc(F)cc1)N(CC(C)C)S(=O)(=O)C=C
23% | 0% | 56µM* | 11% | u | Cc1ccsc1C=Nc1ccc(O)cc1
-53% | 0% | 37% | 3% | 9%[2.29 µM] | Cc1ccsc1/C=N/N=C/c1sccc1C
-1% | 2% | 56µM* | 2% | -12% | CCCCN(C(=O)Cn1ncc(Cl)c(Cl)c1=O)c1c(N)n(CC(C)C)c(=O)[nH]c1=O
-2% | 1% | 6%[57.1 µM] | -3% | -8% | CCCCN(C(=O)CN1CC(C)OC(C)C1)c1c(N)n(CC(C)C)c(=O)[nH]c1=O (stereo not drawn)
x | x | x | -1% | x | OC1(c2cccnc2)CCN(Cc2ccc3c(c2)CN(Cc2cccc(C(F)(F)F)c2)CCO3)CC1
-6% | 0% | u | 20%[38.3 µM] | 6%[57.1 µM] | Cc1cccnc1Sc1c([N+](=O)[O-])ncn1C
4% | 2% | 0.63µM* | 1% | 6%[57.1 µM] | Cn1cnc([N+](=O)[O-])c1Sc1nnc(-c2cccnc2)n1C
14% | 5% | 71µM* | 0% | -10% | O=C(c1ccoc1)N1CCC2(CC1)Oc1ccc(F)cc1C(=O)C21CC(c2ccc(Cl)cc2)=NO1 (stereo not drawn)
u | x | -8% | 1% | -10% | CCOC(=O)c1ccc(NC(=O)CCC(=O)N2Cc3ccccc3Oc3ncccc32)cc1
-5% | -2% | 79%[57.1 µM] | 0% | 536%[57.1 µM] | CCc1cc(=O)oc2c(CN3CCN(C)CC3)c(O)ccc12
0% | 7% | 35µM* | 0% | -5% | CN1CCN(Cc2c(O)ccc3cc(Br)ccc23)CC1
18% | x | 5%[57.1 µM] | -1% | -4%[57.1 µM] | CCC1=C(c2ccc(C)cc2)S(=O)(=O)N=C1N1CCC(C(=O)Nc2ccccc2C(=O)OC)CC1
-1% | 0% | 8.9µM* | -1% | 8%[57.1 µM] | CCOc1cc(/C=C\[N+](=O)[O-])ccc1OCC(=O)N1CCOCC1
x | x | x | 1% | x | O=C(c1ccc(N2CCC(NCCCn3ncc4ccccc43)CC2)cc1)N1CCc2ccccc2C1
-2% | -2% | u | 6.3µM* | -3% | COc1cccc(-c2nc(=S)c3c(n2Cc2ccco2)CCCC3)c1
0% | x | 7%[57.1 µM] | 1% | 2%[57.1 µM] | O=C(NCCOCCO)C(=O)Nc1c2c(nn1-c1ccc(F)cc1)CSC2
u | -6% | 32µM* | -2% | -8% | CSc1nnc(NC(=O)c2nc(S(=O)(=O)Cc3ccccc3)ncc2Cl)s1
u | x | 7.1µM* | -1% | 2% | Cc1ccccc1CS(=O)(=O)c1ncc(Cl)c(C(=O)Nc2nnc(C(C)C)s2)n1
u | -3% | 50µM* | -1% | -2% | CC(C)c1nnc(NC(=O)c2nc(S(=O)(=O)Cc3ccccc3)ncc2Cl)s1
u | 4% | 50µM* | 1% | 5% | CCCc1nnc(NC(=O)c2nc(S(=O)(=O)Cc3ccc(C)cc3)ncc2Cl)s1
u | x | u | -1% | 1% | Cc1ccc(CS(=O)(=O)c2ncc(Cl)c(C(=O)Nc3nc4ccc(C)cc4s3)n2)cc1
-16% | x | 15% | 2% | 0% | O=C(NCc1cccs1)c1ccc(CSc2nc3ccncc3n2Cc2ccccc2F)cc1
-14% | x | -8% | 2% | 2% | Cc1c(Cl)cccc1N1C(N)=C(C#N)C(c2cc(CN3CCOCC3)cs2)C2=C1CCCC2=O (stereo not drawn)
x | x | -7% | x | -6% | CN(Cc1ccccc1)c1ccc(C=O)cc1
8% | x | 8% | 0% | 0% | CCc1ccccc1NC(=O)Cn1nc(-c2cc(C)ccc2C)c2c(c1=O)CCCC2
-5% | 14% | 50µM* | 2% | -4% | CC(=O)Nc1ccc(C(=O)Nc2nc(-c3ccccn3)cs2)cc1
0% | -3% | 4%[57.1 µM] | 1% | -7% | CC(=O)Nc1ccc(C(=O)Nc2nc(-c3cccnc3)cs2)cc1
-54% | 2% | 89µM* | -1% | 213% | Nc1ccc(-c2nc3ncccc3o2)c(O)c1
-38% | -3% | 8%[57.1 µM] | u | 23%[57.1 µM] | Nc1ccc(-c2nc3ncccc3o2)c(Cl)c1
26% | 1% | 11% | 16µM* | -5% | Cc1cc(C(=O)Nn2c(C3CCCCC3)nc3ccccc3c2=O)ccc1[N+](=O)[O-]
5% | 1% | 5%[57.1 µM] | -1% | -1%[57.1 µM] | O=C(Nn1c(C2CCCCC2)nc2ccccc2c1=O)c1ccc(Cl)c([N+](=O)[O-])c1
25% | x | 6%[57.1 µM] | 16µM* | -4%[57.1 µM] | CC(NC(=S)NCCc1ccccc1)C(c1cccs1)N1CCN(Cc2ccccc2)CC1 (stereo not drawn)
-2% | -4% | 14%[57.1 µM] | 0% | 10%[57.1 µM] | CC(NC(=O)NC1CCCCC1)C(c1cccs1)N1CCN(Cc2ccccc2)CC1 (stereo not drawn)
-2% | x | 26% | 4% | 1% | COc1ccc(NC(=O)c2c(NC(=O)COc3ccccc3)sc3c2CCCCC3)cc1
-1% | 8% | -20% | 11µM* | 8% | COc1ccc(OCC(=O)Nc2sc3c(c2C(=O)NCC2CCCO2)CCC3)cc1 (stereo not drawn)
-3% | -4% | 22µM*! | -1% | 7% | COc1ccc(OC)c(NC(=O)c2cccc3c2C(=O)N(C2CCCCC2)C3)c1
-2% | 5% | 21% | 0% | 6% | COc1ccc(NC(=O)c2cccc3c2C(=O)N(C2CCCCC2)C3)cc1
u | -11% | 4µM* | 6% | 5%[57.1 µM] | COc1cccc(-n2nc(C#N)c(Cl)cc2=O)c1
1% | x | 30% | -1% | 5% | Cc1oc(-c2cccc(Cl)c2)nc1CN1CCC(C(=O)NCc2ccc(F)cc2)CC1
26% | 3% | 45µM* | 7% | 3% | COc1cccc(C2C=C(c3ccc(OC)cc3OC)Nc3nnnn32)c1 (stereo not drawn)

Entries shown so far that have a cyano group, in the order listed:
miR-21 reporter | GALK inh | rTrxR1 inhibitor | PINK1 modulator | TrxR1 substrate | Compound
-14% | x | -8% | 2% | 2% | Cc1c(Cl)cccc1N1C(N)=C(C#N)C(c2cc(CN3CCOCC3)cs2)C2=C1CCCC2=O (stereo not drawn)
u | -11% | 4µM* | 6% | 5%[57.1 µM] | COc1cccc(-n2nc(C#N)c(Cl)cc2=O)c1

(continued)
miR-21 reporter | GALK inh | rTrxR1 inhibitor | PINK1 modulator | TrxR1 substrate | Compound
-7% | x | -4% | 2% | -3% | COc1ccc(-n2cc(C(=O)NC(C)c3ccccc3)c3ccccc3c2=O)cc1 (stereo not drawn)
-2% | x | -20% | 4% | -11% | CCCN(C(=O)c1cc2c(s1)-c1c(C)cccc1OC2)c1ccc(OCC)cc1
-53% | x | 79µM* | 3% | 4% | COc1ccc(C(=O)Nc2nnc(C(C)C)s2)cc1OC
-3% | 7% | 4%[57.1 µM] | -1% | 1%[57.1 µM] | Cc1ccccc1C(=O)Oc1cc(N)n(S(C)(=O)=O)n1

Quoted at random: three compounds from above.
miR-21 reporter | GALK inh | rTrxR1 inhibitor | PINK1 modulator | TrxR1 substrate | Compound
0% | -3% | 4%[57.1 µM] | 1% | -7% | CC(=O)Nc1ccc(C(=O)Nc2nc(-c3cccnc3)cs2)cc1
-3% | 7% | 4%[57.1 µM] | -1% | 1%[57.1 µM] | Cc1ccccc1C(=O)Oc1cc(N)n(S(C)(=O)=O)n1
-1% | x | 16%[57.1 µM] | 2% | -3%[57.1 µM] | CCOC(=O)c1sc2ccccc2c1S(=O)(=O)NCc1ccc(F)cc1

Screens: PubChem, National Center for Advancing Translational Sciences (NCATS)
